From patent publication US20180362449A1, “THE EXOCYST AS A NOVEL DRUG TARGET OF ENDOSIDIN2 AND APPLICATION AS A THERAPEUTIC” (The Regents of the University of California, priority 2015, published 2018) come the findings set out here.

Chains of the proteins cited; added tags and fusions are not shown. Residues count along the entry.
UniProt Q9LZD3, 75-638 L596A/I613A: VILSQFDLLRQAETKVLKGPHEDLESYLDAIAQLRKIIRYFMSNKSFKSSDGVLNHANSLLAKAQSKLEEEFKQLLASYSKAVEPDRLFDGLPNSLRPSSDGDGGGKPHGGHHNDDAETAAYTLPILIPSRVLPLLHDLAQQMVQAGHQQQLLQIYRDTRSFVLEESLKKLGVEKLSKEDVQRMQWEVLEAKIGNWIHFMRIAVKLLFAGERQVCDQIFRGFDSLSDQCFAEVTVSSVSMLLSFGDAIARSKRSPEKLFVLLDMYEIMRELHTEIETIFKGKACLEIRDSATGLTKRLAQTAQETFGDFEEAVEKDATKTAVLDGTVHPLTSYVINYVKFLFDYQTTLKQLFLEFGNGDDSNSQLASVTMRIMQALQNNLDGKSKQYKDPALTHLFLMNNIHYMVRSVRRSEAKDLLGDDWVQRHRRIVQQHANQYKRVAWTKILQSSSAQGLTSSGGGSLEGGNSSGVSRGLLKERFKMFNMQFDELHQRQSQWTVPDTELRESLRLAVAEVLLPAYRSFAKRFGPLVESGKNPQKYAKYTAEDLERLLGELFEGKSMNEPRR

Assay [1] concerns the target T1, EXO70A1-L596A;I613A (Arabidopsis thaliana, UniProt Q9LZD3, I613A/L596A). Details: unit not given beside the values. The note with it: MST, no unit.
For assay [2], the target named is T1, EXO70A1-L596A;I613A. The note with it: 10 μM protein, 400 μM ES2.

For `COc1cc(/C=N/NC(=O)c2cccc(F)c2)cc(I)c1O` [ES2], on EXO70A1-L596A;I613A [1], the Kd is given as 252+50.6. For the same molecule, the “integrities of STD-NMR spectrum in ES2 relative to wild-type EXO70A1” value on EXO70A1-L596A;I613A [2] was “about 20 % of the wild-type EXO70A1 protein”.
